Data reported in patent US4446141A, “Hypotensive piperidine derivatives” (priority 1978, dated 1984).

Assays:
male dd-strain mice [1] = assay: Experiment 2 Acute toxicity (LD50); details: 7 days
blood pressure = assay: Experiment 4 Hypotensive action, changes in blood pressure with time in anesthetized rats; details: average of six rats, pressure before = 0
male dd-strain mice [2] = assay: Experiment 1 Acute toxicity (number of deaths); details: 3 mice, 7 days; for Number of Death I.P.: 200 mg/kg i.p.; for Number of Death P.O.: 1000 mg/kg p.o.

Compound | LD50 Intraperitoneal administration (male dd-strain mice [1]) [mg/kg] | LD50 Oral administration (male dd-strain mice [1]) [mg/kg] | LD50 Subcutaneous administration (male dd-strain mice [1]) [mg/kg] | change in blood pressure (blood pressure; 10 min. after 30 mg/kg i.p.) [mmHg] | change in blood pressure (blood pressure; 30 min. after 30 mg/kg i.p.) [mmHg] | change in blood pressure (blood pressure; 1 hr. after 30 mg/kg i.p.) [mmHg] | change in blood pressure (blood pressure; 2 hrs. after 30 mg/kg i.p.) [mmHg] | change in blood pressure (blood pressure; 3 hrs. after 30 mg/kg i.p.) [mmHg] | change in blood pressure (blood pressure; 4 hrs. after 30 mg/kg i.p.) [mmHg] | Number of Death I.P. (male dd-strain mice [2]) | Number of Death P.O. (male dd-strain mice [2])
CC(C(O)c1ccc(O)c(O)c1)N1CCC(n2c(=O)[nH]c3ccccc32)CC1 (stereo not shown) | 1500 | > 6000 | > 3000 | -58 | -65 | -65 | -57 | -44 | -34 | 0 | 0
COc1ccc(C(O)C(C)N2CCC(n3c(O)nc4ccccc43)CC2)cc1OC (stereo not shown) |  |  |  |  |  |  |  |  |  | 0 | 0
O=C(CN1CCC(n2c(=O)[nH]c3ccccc32)CC1)c1ccc(O)c(O)c1 |  |  |  |  |  |  |  |  |  | 0 | 0
O=c1[nH]c2ccccc2n1C1CCN(CCc2ccc(O)c(O)c2)CC1 |  |  |  |  |  |  |  |  |  | 0 | 0
O=c1[nH]c2ccccc2n1C1CCN(CC(O)c2ccc3c(c2)OCO3)CC1 (stereo not shown) | 500 | 1500 | > 1000 | -58 | -40 | -42 | -36 | -26 | -18 | 0 | 0
COc1ccc(C(=O)CN2CCC(n3c(=O)n(C(C)=O)c4ccccc43)CC2)cc1OC |  |  |  |  |  |  |  |  |  | 0 | 0
O=c1[nH]c2ccccc2n1C1CCN(CC(O)c2ccc(O)c(O)c2)CC1 (stereo not shown) | 800 | 3000 | > 1000 | -67 | -75 | -76 | -69 | -64 | -63 | 0 | 0
COc1cc(C(=O)CN2CCC(n3c(=O)[nH]c4ccccc43)CC2)cc(OC)c1OC |  |  |  |  |  |  |  |  |  | 0 | 0
COc1cc(C(O)C(C)N2CCC(n3c(O)nc4ccccc43)CC2)cc(OC)c1OC (stereo not shown) |  |  |  |  |  |  |  |  |  | 0 | 0
CC(C(=O)c1ccc2c(c1)OCO2)N1CCC(n2c(=O)[nH]c3ccccc32)CC1 (stereo not shown) |  |  |  |  |  |  |  |  |  | 0 | 0
COc1cc(C(=O)C(C)N2CCC(n3c(=O)[nH]c4ccccc43)CC2)cc(OC)c1OC (stereo not shown) |  |  |  |  |  |  |  |  |  | 0 | 0

Only a part of the results on these compounds is given; other tests are left out.
